What was measured:
Format in all cases: functional, cell-based
Conditions in all cases: time 6.0 day
DOHH-2 = experiment: Antiproliferative activity against BCL6-dependent human DOHH-2 cells assessed as inhibition in cell growth measured after 6 days by MTS assay
SUD4 = experiment: Antiproliferative activity against BCL6-dependent human SU-DHL-4 cells assessed as inhibition in cell growth measured after 6 days by MTT assay
OCI-Ly1 = experiment: Antiproliferative activity against BCL6-dependent human OCI-Ly1 cells assessed as inhibition in cell growth measured after 6 days by MTT assay
SU-DHL-6 = experiment: Antiproliferative activity against BCL6-dependent human SU-DHL-6 cells assessed as inhibition in cell growth measured after 6 days by MTT assay

Measured: Activity

COc1cc(Nc2nc(N3CCN(CCOCCNc4cccc5c4C(=O)N(C4CCC(=O)NC4=O)C5=O)CC3)ncc2F)ccc1NC(=O)c1ccc(C2=CCCC2)s1 (centres undefined)
active: DOHH-2 = Dose-Dependent Effect | SUD4 = Dose-Dependent Effect | OCI-Ly1 = Dose-Dependent Effect | SU-DHL-6 = Dose-Dependent Effect
